For this assay, the target named is T1, R132C/S280F IDH1 (Homo sapiens, UniProt O75874, R132C/S280F).
T1 construct: made in house
Description: Steady-state kinetics, NADPH turnover assay. Type of assay: biochemical. As for the experimental part:
independent runs, each composed of technical duplicates (n = 2; mean ± SD); c) R132C/S280F IDH1 assays
monitoring NADPH turnover were performed as reported (3). […]

By UniProt entry, the sequences of proteins in these tests, tags left out.
UniProt O75874, whole entry R132C/S280F: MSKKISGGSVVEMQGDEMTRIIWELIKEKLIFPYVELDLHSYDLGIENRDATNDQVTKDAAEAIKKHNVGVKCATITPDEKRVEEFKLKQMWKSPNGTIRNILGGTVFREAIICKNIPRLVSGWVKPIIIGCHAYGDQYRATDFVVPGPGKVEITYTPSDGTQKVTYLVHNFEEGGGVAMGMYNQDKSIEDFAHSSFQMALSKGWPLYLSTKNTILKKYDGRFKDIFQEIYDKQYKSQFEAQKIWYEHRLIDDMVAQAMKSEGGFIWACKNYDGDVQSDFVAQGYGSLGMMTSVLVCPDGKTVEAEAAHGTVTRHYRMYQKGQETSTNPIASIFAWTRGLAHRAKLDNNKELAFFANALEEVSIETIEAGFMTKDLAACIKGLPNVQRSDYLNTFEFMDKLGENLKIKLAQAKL

Regarding `O=C(O)CCC(=O)C(=O)O` [2OG, 2-oxoglutarate], the kcatapp amounted to 2.3 ± 0.1 s⁻¹.

Source of the values: article PMC9939733, “Natural and synthetic 2-oxoglutarate derivatives are substrates for oncogenic variants of human isocitrate dehydrogenase 1 and 2” (The Journal of Biological Chemistry, 2023).
